Data: patent US8318949B2, “Organic compounds” (Novartis AG, priority 2008, dated 2012)

Chains of the proteins cited; added tags and fusions are not shown.
UniProt P13516, whole entry: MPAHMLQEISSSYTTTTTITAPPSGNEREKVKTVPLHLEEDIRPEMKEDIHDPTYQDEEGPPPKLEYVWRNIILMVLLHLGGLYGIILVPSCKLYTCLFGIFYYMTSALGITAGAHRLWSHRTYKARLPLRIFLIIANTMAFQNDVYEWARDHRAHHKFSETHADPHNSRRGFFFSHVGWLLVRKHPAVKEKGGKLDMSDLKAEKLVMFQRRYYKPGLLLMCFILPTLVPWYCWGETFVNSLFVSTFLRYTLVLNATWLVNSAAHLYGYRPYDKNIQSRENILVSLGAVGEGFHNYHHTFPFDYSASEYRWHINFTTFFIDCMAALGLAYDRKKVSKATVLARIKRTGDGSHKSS

Target: stearoyl-CoA desaturase (SCD1) (Mus musculus, UniProt P13516)
Assay: Stearoyl-CoA desaturase inhibition, mouse liver microsomes (release of 3H2O from [9,10-3H]stearoyl-CoA)
Settings: read-out: Microsomal IC50, 15 min incubation, 25° C.
From the text: The identification of compounds of the invention as SCD inhibitors was readily accomplished using the SCD enzyme and microsomal assay procedure described in Shanklin J. and Summerville C., Proc. Natl. Acad. Sci. USA (1991), Vol. 88, pp. 2510-2514.
Measuring Stearoyl-CoA Desaturase Inhibition Activity of a Test Compound Using Mouse Liver Microsomes
The identification of compounds of the invention as SCD inhibitors was readily accomplished using the SCD microsomal assay procedure described in Shanklin J. and Summerville C., Proc. Natl. Acad. Sci. USA (1991), Vol. 88, pp. 2510-2514.
Male ICR outbread mice, on a high-carbohydrate, low fat diet, under light halothane (15% in mineral oil) anesthesia are sacrificed by exsanguination during periods of high enzyme activity. Livers are immediately rinsed with cold 0.9% NaCl solution, weighed and minced with scissors. […] The absence of mitochondrial contamination is enzymatically assessed. The protein concentration is measured using bovine serum albumin as the standard.
Desaturase activity is measured as the release of ^3H2O from [9,10-^3H]stearoyl-CoA. […] The flow through containing the ^3H2O released by the SCD1 desaturation reaction is added to scintillation fluid and the radioactivity measured in a Packard TopCount. The data is analysed to identify the IC50 for test compounds and reference compounds. […]

| IC50 [nM] | SMILES |
| --- | --- |
| 88 | Cc1nc(-n2cnn(CC3CC3(F)F)c2=O)sc1C(=O)NCc1ccccn1 (centres unmarked) |
| 26 | Cc1nc(-n2cnn(Cc3ccc(OC(F)(F)F)cc3)c2=O)sc1C(=O)NCc1cncs1 |
